According to US20220168430A1, “THERAPEUTIC METHODS FOR TREATING HEPATITIS B” (priority 2019, published 2022):

Assays:
HBV rcDNA = assay: microbe, parasite or virus in culture; format: cell-based, HBV genotype D, serotype ayw; HepG 2.2.15; settings: Hepatitis B virus, HepG2.2.15; Cmpd 2 0.00008 μM; TDF 0 μM; Cmpd 1 by row r27-r32: 0.405, 0.135, 0.045, 0.015, 0.005, 0 μM; read-out: ADDITIVE INHIBITION
Experimental: In vitro triple agent combination studies were conducted using the method of Prichard and Shipman 1990 (Prichard M N, Shipman C, Jr. 1990. Antiviral Res 14:181-205). The HepG 2.2.15 cell line was derived from HepG2 cells with constitutive expression of HBV (genotype D, serotype ayw) (Sells M A, Chen M L, Acs G. 1987. Proc Natl Acad Sci USA 84:1005-9). […] The plates were incubated for 7 days in a humidified incubator at 37° C. and 5% CO2. The level of rcDNA present in the culture supernatants was measured using a Quantigene 2.0 bDNA assay kit (Affymetrix, Santa Clara, Calif.) with HBV specific custom probe set (genotype D ayw) and according to the manufacturer's instructions and read using a luminescence plate reader and the relative luminescence units (RLU) data generated from each well was calculated as % inhibition of the untreated control wells and analyzed using the MacSynergy II program to determine whether the combinations were synergistic, additive or antagonistic using the interpretive guidelines established by Prichard and Shipman (Prichard M N, Shipman C, Jr. 1990. […] Concurrently, in each experiment, the effect of inhibitor combinations on cell viability was assessed in triplicates that were used to determine the ATP content as a measure of cell viability using the Cell-Titer Glo reagent (Promega, Madison, Wis.) as per the manufacturer's instructions.

HBV DNA [1] = assay: HBV DNA by branched DNA assay in HepG2.2.15 cells, two-compound combinations (Examples 13-14); format: cell-based, HBV; HepG2.2.15 (human hepatoblastoma); settings: TAF 0 μM; Cmpd 2 μM: 0.01, 0.0032, 0.001, 0.0003, 0.0001, 0; n = 4
Experimental: In vitro combination studies were conducted using the method of Prichard and Shipman (Prichard M N, and Shipman C Jr., Antiviral Research, 1990, 14(4-5), 181-205; and Prichard M N, et. al., MacSynergy II). The HepG2.2.15 cell culture system is a cell line derived from human hepatoblastoma HepG2 cells, which have been stably transfected with the adw2-subtype HBV genome as previously explained in Sells et al. (Proc. Natl. Acad. Sci. U. S. A, 1987. Vol 84:1005-1009). HepG2.2.15 cells secrete Dane-like viral particles, produce HBV DNA, and produce the viral proteins, HBeAg and HBsAg.
Although inhibition of HBV DNA, RNA and proteins can be determined in the presence of these inhibitors, we used the branched DNA assay due to its ability to quantitatively measure the level HBV DNA.
Detection of HBV DNA. […]
The level of bDNA present in the inhibitor-treated supernatant wells was measured using a Quantigene 2.0 bDNA assay kit (Affymetrix, Santa Clara, Calif.) with HBV specific custom probe set (genotype D ayw; DF-10739) and manufacturer's instructions after performing a proteinase K digestion in lysis. The plates were read using a Victor luminescence plate reader (PerkinElmer Model 1420 Multilabel counter) and the RLU data generated from each well was calculated as inhibition of the untreated control wells. […]

HBV DNA [2] = assay: HBV DNA in culture supernatants of HBV-infected PHH by qPCR (Examples 15-17); format: cell-based, HBV genotype D; primary human hepatocytes; settings: TDF 0.37 nM alone
Experimental: The day PHH seeding date was defined as day 0.
The PHH were infected with 400 HBV GE/cell of D type HBV on day 1.
The test articles were further diluted with the culture medium to the final test concentrations.
All the test articles were further diluted 100 times with the culture medium. The final concentration of DMSO in the culture medium was […].
Four two-way combinations were performed on a 5×5 matrix, in triplicate plates. Transfection reagent was present in all wells.
DNA in the culture supernatants harvested on days 8 was isolated with QIAamp 96 DNA Blood Kit (Qiagen-51162). For each sample, 100 μl of each culture supernatant was used to extract DNA. The DNA was eluted with 180 μl of AE. HBV DNA in the culture supernatants was quantified by quatitative PCR using well-established and commonly used procedures. Percent inhibition of HBV DNA was calculated with the formula below:
% Inh. HBV DNA=[1−value of sample/AVG. value of Medium control]×100.
Results of double combination studies were analyzed using MacSynergy II software (Prichard and Shipman, 1992).

| SMILES | inhibition at 80 pM (HBV rcDNA) [%] | Average percent inhibition versus negative control (HBV DNA [1]) [%] | AVERAGE % INHIBITION (HBV DNA [2]) [%] |
| --- | --- | --- | --- |
| COCCCOc1cc2c(nc1OC)-c1cc(=O)c(C(=O)O)cn1[C@H](C(C)C)C2 [Compound 2] | 23.6 | 66.75 |  |
| CC(C)OC(=O)OCOP(=O)(CO[C@H](C)Cn1cnc2c(N)ncnc21)OCOC(=O)OC(C)C.O=C(O)/C=C/C(=O)O [TDF, tenofovir disoproxil fumarate, reference compound] |  |  | 44.28 |
